The source of these data is patent US9855310B2, “Coix seed oil containing 8 triglycerides, and pharmaceutical preparation and use thereof” (ZHEJIANG KANGLAITE GROUP CO., LTD., priority 2014, dated 2018).

The subject of this data set is QGY human hepatoma. The data set can be described thus: Growth of QGY human hepatoma transplanted in nude mice. Particulars: 2 mg/kg, ip × 7qd.

Regarding `COc1cccc2c1C(=O)c1c(O)c3c(c(O)c1C2=O)C[C@@](O)(C(=O)CO)C[C@@H]3O[C@H]1C[C@H](N)[C@H](O)[C@H](C)O1` [Adriamycin], the “Weight of animal start/end: start” value is listed as 21.7.
